Measurements taken from patent US20180072675A1, “ANTIMICROBIAL PYRIDINOHYDRAZIDE AND HYDRAZOMETHYLPYRIDINE-BASED AGENTS” (Board of Supervisors of Louisiana State University and …, priority 2015, published 2018).

Tested on: protozoal proliferation
Assay: Protozoal proliferation
Format: cell-based
Conditions: FIG. 27

O=C(N/N=C/c1ccccc1O)c1ccncc1 [SA81]
effect on protozoal proliferation: reduce protozoal proliferation

O=C(N/N=C/c1ccccc1O)c1ccc[n+]([O-])c1 [SA82]
effect on protozoal proliferation: reduce protozoal proliferation
